## scFv variants of Ab-14 (heavy chain) against a SARS-CoV-2 spike peptide

All variants were tested on one target, the spike HR2 peptide PDVDLGDISGINAS (SARS-CoV-2).

The variants keep the light chain, the linker and the frameworks of Ab-14 (scFv order VH, the linker GGGGSGGGGSGGGGS, VL).
VH: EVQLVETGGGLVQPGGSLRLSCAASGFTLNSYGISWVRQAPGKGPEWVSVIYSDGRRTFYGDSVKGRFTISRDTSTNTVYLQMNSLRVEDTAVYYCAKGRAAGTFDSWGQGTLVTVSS
VL: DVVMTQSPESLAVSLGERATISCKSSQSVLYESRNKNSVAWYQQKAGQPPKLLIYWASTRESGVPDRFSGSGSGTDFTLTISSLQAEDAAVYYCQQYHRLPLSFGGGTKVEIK

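The parent was found by panning a naive human phage display library on the peptide. AAYL49 was designed without a model: most single CDR substitutions and a random sample of double and triple ones. In AlphaSeq, yeast of one mating type display the scFv and yeast of the other type display the target. The frequency of each diploid, read from paired DNA barcodes, reflects how well the two displayed proteins bind. Scores were corrected for input abundance and mapped to Kd with protein pairs of known affinity run in the same pool. Mating was done three times.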

The parent's heavy chain CDRs are GFTLNSYGIS, VIYSDGRRTFYGDSVK, GRAAGTFDS; each variant's own CDRs replace them letter for letter.
Every variant below is changed at R100 of the VH (sequential numbering).
The read-out is the apparent dissociation constant on a log10 scale (nM): the lower, the stronger.
The mean shown is taken over the replicates in which the pair was detected.
"no signal" marks a missing value. The strain was present, yet no cells mated with the target were sequenced in any replicate, which points to weak or no binding.
Parent in this assay: reference entry 0.65, copy in this library 4.11 (one replicate of three).
Background: pairings of library AAYL49 with three empty control strains gave a value in 15% of cases (median 4.06, 5th percentile 2.83). Values in that range, when seen in few replicates, are hard to tell from nonspecific mating. Also given: how often the same scFv was detected with the empty control strains.

With GFTLNSYGIS | VIYSDGRHTFYGDSVD | GPAAGTFDS the result was 3.52 (1 of 3 replicates; controls 2 of 9). Variant GFTLNSYGIS | VIISDGRRTFYGDSVK | GEAFGTFDS showed no signal (0 of 3 replicates; controls 1 of 9). With GFTLNSPGIS | VIYSDGRRTFYGDSVK | GTAAGTFDS the result was no signal (0 of 3 replicates; controls 7 of 9). For GATLNSYGIS | VIYSDGRREFYGDSVK | GQAAGTFDS, the assay gave 2.58 (1 of 3 replicates; controls 2 of 9). For GFTLNHYGIS | VIYSDGRRTFYGDSVK | GHAAGTADS, the assay gave 4.52 (1 of 3 replicates; controls 0 of 9). For GFTLNSYGIS | VIYSDGIRTFYGDSVK | GMIAGTFDS, the assay gave 3.28 (3 of 3 replicates; controls 0 of 9). Variant GFTLNSYWIS | VIYSDGRRTFYGDSVK | GNAAGTFDS gave no signal (0 of 3 replicates; controls 0 of 9). Variant GFTLNSYGIS | VIYSRGRRTFYGDSVK | GSAAGTHDS showed 5.88 (1 of 3 replicates; controls 2 of 9). For GFYLNSYGIS | VIYSDGRRTFYGDSVK | GQAAGTFDS, the assay gave 1.26 (3 of 3 replicates; controls 1 of 9).

For GFTLNSYGIS | VIYSDGRRTFYSDSVK | GNAAGTFDS, the assay gave 0.01 (3 of 3 replicates; controls 3 of 9). Variant GFTLNSYGFS | VIYSDGDRTFYGDSVK | GFAAGTFDS gave 3.44 (2 of 3 replicates; controls 2 of 9). Variant GFTLDSYGIS | VIYSKGRRTFYGDSVK | GPAAGTFDS gave no signal (0 of 3 replicates; controls 0 of 9). Variant GFTLNSYGIS | VIYSDGMRTFYGGSVK | GAAAGTFDS gave 1.97 (3 of 3 replicates; controls 0 of 9). For GFTLNSYGIS | VIYSTGRRTFYADSVK | GSAAGTFDS, the assay gave 3.22 (3 of 3 replicates; controls 3 of 9). Variant GFTLNSYGIS | VIYSDGRRTFYFQSVK | GNAAGTFDS gave 3.67 (1 of 3 replicates; controls 4 of 9). With GFTLNSYGIS | VIWSDGRRTFYGDSVK | GTAAGTFPS the result was 5.16 (3 of 3 replicates; controls 6 of 9). With CFTLNSYGIS | VIYSDGRFTFYGDSVK | GAAAGTFDS the result was no signal (0 of 3 replicates; controls 1 of 9). Variant GPTHNSYGIS | VIYSDGRRTFYGDSVK | GGAAGTFDS showed 4.37 (2 of 3 replicates; controls 3 of 9).

Variant GFTLNSYGIS | VIYSDGRRTFYHFSVK | GVAAGTFDS showed 3.87 (1 of 3 replicates; controls 1 of 9). Variant MFTLNSYGIS | VIYSDGRRTFYGDSVK | CCAAGTFDS gave no signal (0 of 3 replicates; controls 0 of 9). With GFTLNSYLIS | VIYSDGRRTFYGDSVK | GAAAGHFDS the result was 3.41 (1 of 3 replicates; controls 0 of 9). Variant GFTLNSYGIS | GIYSDGRRTFYGDSVK | GVAAGTFRS showed 4.56 (1 of 3 replicates; controls 5 of 9). Variant GFALNSYGIS | VIYSDGRRTDYGDSVK | GNAAGTFDS showed 2.28 (3 of 3 replicates; controls 5 of 9). Variant GFTLNSYGIS | VIYSDGRGTFYGDSVK | GHAAPTFDS gave 3.85 (1 of 3 replicates; controls 2 of 9). For GFTLNSYGIS | VIYSDGRRTFYGDSKK | GCNAGTFDS, the assay gave no signal (0 of 3 replicates; controls 1 of 9). With GFTLNSYGIS | VIYSDTRRTFYGDQVK | GPAAGTFDS the result was 4.64 (3 of 3 replicates; controls 3 of 9). Variant GFTLNSYGIS | VIYFDGRRTFYGDPVK | GDAAGTFDS gave 2.06 (3 of 3 replicates; controls 4 of 9).

Variant GFTLNSYGIS | VIYSDGRRTFYGDSVK | YVAAGTFDS showed no signal (0 of 3 replicates; controls 0 of 9). Variant GFTLNSYGIS | VIYSDGRRTFYGDSHK | GMAAGTFDS gave 2.39 (3 of 3 replicates; controls 0 of 9). Variant GFTLNSYGIS | VIYSDGRRTFYGDSVK | GFDAGTFDS showed 1.85 (3 of 3 replicates; controls 6 of 9). Variant GFTLNSYGIS | VIYSDGRRCFYADSVK | GTAAGTFDS showed 1.30 (3 of 3 replicates; controls 1 of 9). Variant GFTLNSYGIS | SIYSDGRRTFYGYSVK | GFAAGTFDS gave 4.95 (2 of 3 replicates; controls 4 of 9). With GFTLNSYGIS | VIYSDGRRTFYGDSVQ | GMAAGTFDS the result was 1.78 (3 of 3 replicates; controls 2 of 9). Variant SFTLNDYGIS | VIYSDGRRTFYGDSVK | GCAAGTFDS showed 4.12 (1 of 3 replicates; controls 2 of 9). Variant GFTLNSYGFS | RIYSDGRRTFYGDSVK | GNAAGTFDS showed 3.91 (1 of 3 replicates; controls 2 of 9). Variant GFTLNSYGIS | VIYSDGRRTFRGDSVK | GIAAGTFDS showed no signal (0 of 3 replicates; controls 0 of 9).

Variant GFTLNSYGIS | VIYSDGRRTFYGDSVV | GHAAGTFDS showed 1.35 (3 of 3 replicates; controls 1 of 9). With GFTLNSYGIS | VIYSDGRRTFYGDSVK | GYVHGTFDS the result was 0.48 (3 of 3 replicates; controls 0 of 9). With GFTLNSYGIS | VIYSDQRRTFYGDSVK | GLAAMTFDS the result was no signal (0 of 3 replicates; controls 0 of 9).

For reference, 6 entries of the list once more:

Variant GFTLNSPGIS | VIYSDGRRTFYGDSVK | GTAAGTFDS gave no signal (0 of 3 replicates; controls 7 of 9).
Variant GFTLNSYGIS | VIYSDGRRTFYSDSVK | GNAAGTFDS gave 0.01 (3 of 3 replicates; controls 3 of 9).
Variant GFTLDSYGIS | VIYSKGRRTFYGDSVK | GPAAGTFDS gave no signal (0 of 3 replicates; controls 0 of 9).
Variant GFTLNSYGIS | VIYSDGIRTFYGDSVK | GMIAGTFDS gave 3.28 (3 of 3 replicates; controls 0 of 9).
Variant GFTLNSYGFS | RIYSDGRRTFYGDSVK | GNAAGTFDS gave 3.91 (1 of 3 replicates; controls 2 of 9).
Variant GFALNSYGIS | VIYSDGRRTDYGDSVK | GNAAGTFDS gave 2.28 (3 of 3 replicates; controls 5 of 9).

From the AlphaSeq antibody data of Engelhart et al. 2022 (doi:10.1038/s41597-022-01779-4), copy in the FLAb collection.